{"sequences": {"note": "Protein sequences, listed by entry. Tags and fused reporters are not part of them. Residues count along the entry.", "UniProt Q15561, 217-434": "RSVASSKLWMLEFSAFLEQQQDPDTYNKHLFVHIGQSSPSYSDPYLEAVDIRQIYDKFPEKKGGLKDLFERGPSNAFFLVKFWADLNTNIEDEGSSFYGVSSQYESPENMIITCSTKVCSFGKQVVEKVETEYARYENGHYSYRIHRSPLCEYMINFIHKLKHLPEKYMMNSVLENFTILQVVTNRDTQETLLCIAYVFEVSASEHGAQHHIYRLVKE"}, "source": "paper PMC7784741", "about": "(Protein Science : A Publication of the Protein Society, 2020)", "target": "YAP-binding domain of human TEAD4, TEAD4 217-434 (human, UniProt Q15561 217-434, biotin (N-biotinylated Avi tag))", "experiment": "SPR"}
{"binder": "SETDLEALFNAVMNPKTANVPQTVPMRLRKLPDSFFKPP (N-acetylated; C-amidated)", "note": "[synthetic peptide of the TEAD-binding domain of human YAP, residues 61-99]", "values": [{"measurement": "Kd", "result": 81, "unit": "nM"}]}
